Results: patent US20140100156A1 (SANOFI, priority 2012, published 2014)
Like-named read-outs stand apart in the source and are kept apart here.

Chains of the proteins cited; added tags and fusions are not shown. Residues count along the entry.
UniProt P47871, 26-477: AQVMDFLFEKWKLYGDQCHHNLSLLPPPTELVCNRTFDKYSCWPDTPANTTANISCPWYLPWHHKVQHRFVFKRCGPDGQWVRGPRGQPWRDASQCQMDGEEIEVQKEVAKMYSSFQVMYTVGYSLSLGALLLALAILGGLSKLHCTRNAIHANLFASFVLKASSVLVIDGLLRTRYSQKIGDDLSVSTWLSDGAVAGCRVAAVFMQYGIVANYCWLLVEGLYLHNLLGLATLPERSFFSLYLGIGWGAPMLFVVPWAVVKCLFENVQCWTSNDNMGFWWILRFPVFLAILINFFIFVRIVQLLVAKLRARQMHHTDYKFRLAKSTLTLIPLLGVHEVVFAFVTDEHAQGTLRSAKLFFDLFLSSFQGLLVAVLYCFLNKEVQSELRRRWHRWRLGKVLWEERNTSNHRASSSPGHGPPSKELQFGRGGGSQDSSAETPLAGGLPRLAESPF
UniProt P43220, 24-463: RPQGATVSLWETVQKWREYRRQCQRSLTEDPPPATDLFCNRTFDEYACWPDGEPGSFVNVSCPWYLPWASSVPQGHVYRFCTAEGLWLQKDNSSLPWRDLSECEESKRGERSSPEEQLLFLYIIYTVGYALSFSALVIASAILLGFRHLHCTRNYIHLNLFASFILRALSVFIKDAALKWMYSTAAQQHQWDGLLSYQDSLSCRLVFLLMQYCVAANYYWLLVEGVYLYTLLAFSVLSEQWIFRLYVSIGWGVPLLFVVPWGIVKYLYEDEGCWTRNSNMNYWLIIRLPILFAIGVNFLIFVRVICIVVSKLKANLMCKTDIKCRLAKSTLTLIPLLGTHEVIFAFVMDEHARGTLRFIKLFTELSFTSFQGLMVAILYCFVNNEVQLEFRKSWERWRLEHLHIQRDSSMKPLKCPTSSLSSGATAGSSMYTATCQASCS

Assays:
[1] = target: T1, human glucagon receptor (Homo sapiens, UniProt P47871); assay: cAMP response (HTRF) of HEK-293 cells stably expressing human glucagon receptor; type: cell-based; settings: read-out: EC50 hGlucagon-R
T1 construct: expressed in transfected cells; host or cells: HEK-293

[2] = physchem; type: physicochemical
Protocol: Prior to the testing of solubility and stability of a peptide batch, its content was determined. Therefore, two parameters were investigated, its purity (HPLC-UV) and the amount of salt load of the batch (ion chromatography). Since synthesized peptides contain primarily trifluoroacetate anions, only anion chromatography was performed.
. Therefore, solutions from solid samples were prepared in different buffer systems with a concentration of 1.0 mg/mL compound based on the previously determined content. HPLC-UV was performed after 2 h of gentle agitation from the supernatant, which was obtained by 20 min of centrifugation at 4000 rpm.
This analysis also served as starting point (t0) for the stability testing.
Instrument: Agilent 1100, column: X-Bridge C18 3.5 μm 2.1×150 mm (Waters), eluent: A: H20+500 ppm TFA/B: Methanol, flow: 0.55 mL/min, gradient: 0-5 min: 10-60% B; 5-15 min: 60-99% B; detection: 214 nm.

[3] = target: T2, human GLP-1 receptor (Homo sapiens, UniProt P43220); assay: cAMP response (HTRF) of HEK-293 cells stably expressing human GLP-1 receptor; type: cell-based; settings: read-out: EC50 hGLP-1R
T2 construct: expressed in transfected cells; host or cells: HEK-293

[4] = Table 8, comparison testing of position 14

SMILES | EC50 ([1]; Table 5, cAMP, HEK-293) | solubility at 2 h ([2]; pH 4.5) | solubility at 2 h ([2]; pH 7.4) | EC50 ([3]; Table 5, cAMP, HEK-293) | EC50 [1, 4] | EC50 [3, 4]
CCCCCCCCCCCCCCCC(=O)N[C@@H](CCC(=O)NCCCC[C@H](NC(=O)[C@H](CCC(N)=O)NC(=O)[C@H](CCCCN)NC(=O)[C@H](CO)NC(=O)[C@H](CC(C)C)NC(=O)[C@H](CC(=O)O)NC(=O)[C@H](CO)NC(=O)[C@@H](NC(=O)[C@H](Cc1ccccc1)NC(=O)[C@@H](NC(=O)CNC(=O)[C@H](CCC(N)=O)NC(=O)C(C)(C)NC(=O)[C@@H](N)Cc1c[nH]cn1)[C@@H](C)O)[C@@H](C)O)C(=O)N[C@@H](CCC(=O)O)C(=O)N[C@@H](CO)C(=O)N[C@@H](CCCCN)C(=O)N[C@@H](C)C(=O)N[C@@H](C)C(=O)N[C@@H](CCC(N)=O)C(=O)N[C@@H](CC(=O)O)C(=O)N[C@@H](Cc1ccccc1)C(=O)N[C@H](C(=O)N[C@@H](CCC(=O)O)C(=O)N[C@@H](Cc1c[nH]c2ccccc12)C(=O)N[C@@H](CC(C)C)C(=O)N[C@@H](CCCCN)C(=O)N[C@@H](C)C(=O)NCC(=O)NCC(=O)N1CCC[C@H]1C(=O)N[C@@H](CO)C(=O)N[C@@H](CO)C(=O)NCC(=O)N[C@@H](C)C(=O)N1CCC[C@H]1C(=O)N1CCC[C@H]1C(=O)N1CCC[C@H]1C(=O)N[C@@H](CO)C(N)=O)[C@@H](C)CC)C(=O)O [compound 25] | 40.6 pM | > 1000 µg/mL | > 1000 µg/mL | 4.2 pM | – | –
CCCCCCCCCCCCCCCC(=O)NCCCC[C@H](NC(=O)[C@H](CCC(N)=O)NC(=O)[C@H](CCCCN)NC(=O)[C@H](CO)NC(=O)[C@H](CC(C)C)NC(=O)[C@H](CC(=O)O)NC(=O)[C@H](CO)NC(=O)[C@@H](NC(=O)[C@H](Cc1ccccc1)NC(=O)[C@@H](NC(=O)CNC(=O)[C@H](CCC(N)=O)NC(=O)[C@@H](CO)NC(=O)[C@@H](N)Cc1c[nH]cn1)[C@@H](C)O)[C@@H](C)O)C(=O)N[C@@H](CCC(=O)O)C(=O)N[C@@H](CO)C(=O)N[C@@H](CCCNC(=N)N)C(=O)N[C@@H](C)C(=O)N[C@@H](C)C(=O)N[C@@H](CCC(N)=O)C(=O)N[C@@H](CC(=O)O)C(=O)N[C@@H](Cc1ccccc1)C(=O)N[C@H](C(=O)N[C@@H](CCC(=O)O)C(=O)N[C@@H](Cc1c[nH]c2ccccc12)C(=O)N[C@@H](CC(C)C)C(=O)N[C@@H](CCCCN)C(=O)N[C@@H](C)C(=O)NCC(=O)NCC(=O)N1CCC[C@H]1C(=O)N[C@@H](CO)C(=O)N[C@@H](CO)C(=O)NCC(=O)N[C@@H](C)C(=O)N1CCC[C@H]1C(=O)N1CCC[C@H]1C(=O)N1CCC[C@H]1C(=O)N[C@@H](CO)C(N)=O)[C@@H](C)CC [compound 66] | 113 pM | > 1000 µg/mL | > 1000 µg/mL | 8.4 pM | – | –
CCCCCCCCCCCCCCCC(=O)N[C@@H](CCC(=O)NCCCC[C@H](NC(=O)[C@H](CCC(N)=O)NC(=O)[C@H](CCCCN)NC(=O)[C@H](CO)NC(=O)[C@H](CC(C)C)NC(=O)[C@H](CC(=O)O)NC(=O)[C@H](CO)NC(=O)[C@@H](NC(=O)[C@H](Cc1ccccc1)NC(=O)[C@@H](NC(=O)CNC(=O)[C@H](CCC(N)=O)NC(=O)[C@@H](CO)NC(=O)[C@@H](N)Cc1c[nH]cn1)[C@@H](C)O)[C@@H](C)O)C(=O)N[C@@H](CCC(=O)O)C(=O)N[C@@H](CO)C(=O)N[C@@H](CCCNC(=N)N)C(=O)N[C@@H](C)C(=O)N[C@@H](C)C(=O)N[C@@H](CCC(N)=O)C(=O)N[C@@H](CC(C)C)C(=O)N[C@@H](Cc1ccccc1)C(=O)N[C@H](C(=O)N[C@@H](CCC(=O)O)C(=O)N[C@@H](Cc1c[nH]c2ccccc12)C(=O)N[C@@H](CC(C)C)C(=O)N[C@@H](CCCCN)C(=O)N[C@@H](C)C(=O)NCC(=O)NCC(=O)N1CCC[C@H]1C(=O)N[C@@H](CO)C(=O)N[C@@H](CO)C(=O)NCC(=O)N[C@@H](C)C(=O)N1CCC[C@H]1C(=O)N1CCC[C@H]1C(=O)N1CCC[C@H]1C(=O)N[C@@H](CO)C(N)=O)[C@@H](C)CC)C(=O)O [compound 70] | 40.9 pM | > 1000 µg/mL | > 1000 µg/mL | 6.5 pM | – | –
CCCCCCCCCCCCCCCCCC(=O)N[C@@H](CCC(=O)NCCCC[C@H](NC(=O)[C@H](CCC(N)=O)NC(=O)[C@H](CCCCN)NC(=O)[C@H](CO)NC(=O)[C@H](CC(C)C)NC(=O)[C@H](CC(=O)O)NC(=O)[C@H](CO)NC(=O)[C@@H](NC(=O)[C@H](Cc1ccccc1)NC(=O)[C@@H](NC(=O)CNC(=O)[C@H](CCC(N)=O)NC(=O)[C@@H](CO)NC(=O)[C@@H](N)Cc1c[nH]cn1)[C@@H](C)O)[C@@H](C)O)C(=O)N[C@@H](CC(=O)O)C(=O)N[C@@H](CCC(=O)O)C(=O)N[C@@H](CCC(=O)O)C(=O)N[C@@H](C)C(=O)N[C@@H](C)C(=O)N[C@@H](CCCNC(=N)N)C(=O)N[C@@H](CC(C)C)C(=O)N[C@@H](Cc1ccccc1)C(=O)N[C@H](C(=O)N[C@@H](CCC(=O)O)C(=O)N[C@@H](Cc1c[nH]c2ccccc12)C(=O)N[C@@H](CC(C)C)C(=O)N[C@@H](CCCCN)C(=O)N[C@@H](C)C(=O)NCC(=O)NCC(=O)N1CCC[C@H]1C(=O)N[C@@H](CO)C(=O)N[C@@H](CO)C(=O)NCC(=O)N[C@@H](C)C(=O)N1CCC[C@H]1C(=O)N1CCC[C@H]1C(=O)N1CCC[C@H]1C(=O)N[C@@H](CO)C(N)=O)[C@@H](C)CC)C(=O)O [compound 222] | 2.9 pM | – | – | 1.8 pM | – | –
CC[C@H](C)[C@H](NC(=O)[C@H](Cc1ccccc1)NC(=O)[C@H](CC(C)C)NC(=O)[C@H](CCCNC(=N)N)NC(=O)[C@H](C)NC(=O)[C@H](C)NC(=O)[C@H](CCC(=O)O)NC(=O)[C@H](CCC(=O)O)NC(=O)[C@H](CC(=O)O)NC(=O)[C@H](CC(C)C)NC(=O)[C@H](CCC(N)=O)NC(=O)[C@H](CCCCN)NC(=O)[C@H](CO)NC(=O)[C@H](CC(C)C)NC(=O)[C@H](CC(=O)O)NC(=O)[C@H](CO)NC(=O)[C@@H](NC(=O)[C@H](Cc1ccccc1)NC(=O)[C@@H](NC(=O)CNC(=O)[C@H](CCC(N)=O)NC(=O)C(C)(C)NC(=O)[C@@H](N)Cc1c[nH]cn1)[C@@H](C)O)[C@@H](C)O)C(=O)N[C@@H](CCC(=O)O)C(=O)N[C@@H](Cc1c[nH]c2ccccc12)C(=O)N[C@@H](CC(C)C)C(=O)N[C@@H](CCCCN)C(=O)N[C@@H](C)C(=O)NCC(=O)NCC(=O)N1CCC[C@H]1C(=O)N[C@@H](CO)C(=O)N[C@@H](CO)C(=O)NCC(=O)N[C@@H](C)C(=O)N1CCC[C@H]1C(=O)N1CCC[C@H]1C(=O)N1CCC[C@H]1C(=O)N[C@@H](CO)C(N)=O [compound 224] | – | – | – | – | 2930 pM | 1.3 pM
CCCCCCCCCCCCCCCC(=O)N[C@@H](CCC(=O)N[C@@H](CCC(=O)NCCCC[C@H](NC(=O)[C@H](CCC(N)=O)NC(=O)[C@H](CCCCN)NC(=O)[C@H](CO)NC(=O)[C@H](CC(C)C)NC(=O)[C@H](CC(=O)O)NC(=O)[C@H](CO)NC(=O)[C@@H](NC(=O)[C@H](Cc1ccccc1)NC(=O)[C@@H](NC(=O)CNC(=O)[C@H](CCC(N)=O)NC(=O)C(C)(C)NC(=O)[C@@H](N)Cc1c[nH]cn1)[C@@H](C)O)[C@@H](C)O)C(=O)N[C@@H](CC(=O)O)C(=O)N[C@@H](CCC(=O)O)C(=O)N[C@@H](CCC(=O)O)C(=O)N[C@@H](C)C(=O)N[C@@H](C)C(=O)N[C@@H](CCCNC(=N)N)C(=O)N[C@@H](CC(C)C)C(=O)N[C@@H](Cc1ccccc1)C(=O)N[C@H](C(=O)N[C@@H](CCC(=O)O)C(=O)N[C@@H](Cc1c[nH]c2ccccc12)C(=O)N[C@@H](CC(C)C)C(=O)N[C@@H](CCCCN)C(=O)N[C@@H](C)C(=O)NCC(=O)NCC(=O)N1CCC[C@H]1C(=O)N[C@@H](CO)C(=O)N[C@@H](CO)C(=O)NCC(=O)N[C@@H](C)C(=O)N1CCC[C@H]1C(=O)N1CCC[C@H]1C(=O)N1CCC[C@H]1C(=O)N[C@@H](CO)C(N)=O)[C@@H](C)CC)C(=O)O)C(=O)O [compound 226] | 19.1 pM | – | – | 1.4 pM | – | –
CCCCCCCCCCCCCCCC(=O)N[C@@H](CCC(=O)N[C@@H](CCC(=O)NCCCC[C@H](NC(=O)[C@H](CCC(N)=O)NC(=O)[C@H](CCCCN)NC(=O)[C@H](CO)NC(=O)[C@H](CC(C)C)NC(=O)[C@H](CC(=O)O)NC(=O)[C@H](CO)NC(=O)[C@@H](NC(=O)[C@H](Cc1ccccc1)NC(=O)[C@@H](NC(=O)CNC(=O)[C@H](Cc1c[nH]cn1)NC(=O)C(C)(C)NC(=O)[C@@H](N)Cc1c[nH]cn1)[C@@H](C)O)[C@@H](C)O)C(=O)N[C@@H](CC(=O)O)C(=O)N[C@@H](CCC(=O)O)C(=O)N[C@@H](CCC(=O)O)C(=O)N[C@@H](C)C(=O)N[C@@H](C)C(=O)N[C@@H](CCCNC(=N)N)C(=O)N[C@@H](CC(C)C)C(=O)N[C@@H](Cc1ccccc1)C(=O)N[C@H](C(=O)N[C@@H](CCC(=O)O)C(=O)N[C@@H](Cc1c[nH]c2ccccc12)C(=O)N[C@@H](CC(C)C)C(=O)N[C@@H](CCCCN)C(=O)N[C@@H](C)C(=O)NCC(=O)NCC(=O)N1CCC[C@H]1C(=O)N[C@@H](CO)C(=O)N[C@@H](CO)C(=O)NCC(=O)N[C@@H](C)C(=O)N1CCC[C@H]1C(=O)N1CCC[C@H]1C(=O)N1CCC[C@H]1C(=O)N[C@@H](CO)C(N)=O)[C@@H](C)CC)C(=O)O)C(=O)O [compound 227] | 1.1 pM | – | – | 1.4 pM | – | –
